The values below are quoted from earlier work in publication PMC4871753.

The chains behind the UniProt entries cited, without tags or fusion partners. Residues count along the entry.
UniProt P19235, 25-250: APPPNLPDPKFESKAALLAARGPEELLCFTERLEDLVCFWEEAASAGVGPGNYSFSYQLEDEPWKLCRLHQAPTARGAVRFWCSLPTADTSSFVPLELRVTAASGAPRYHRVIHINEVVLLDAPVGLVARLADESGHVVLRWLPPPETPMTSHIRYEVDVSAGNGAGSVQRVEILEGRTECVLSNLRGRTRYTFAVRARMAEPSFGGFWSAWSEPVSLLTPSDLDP

In the data set the target is EpoR (Homo sapiens) (UniProt P19235).

Consider Epo-NLuc (from UniProt P01588), for which the Kd is 0.59 nM.

One may read the Kd as the concentration at which binding is half-saturated.
